Patent US9115117B2, “Substituted piperidine compounds and their use as orexin receptor modulators” (JANSSEN PHARMACEUTICA NV, priority 2013, dated 2015)

The chains behind the UniProt entries cited, without tags or fusion partners.
UniProt O43614, whole entry: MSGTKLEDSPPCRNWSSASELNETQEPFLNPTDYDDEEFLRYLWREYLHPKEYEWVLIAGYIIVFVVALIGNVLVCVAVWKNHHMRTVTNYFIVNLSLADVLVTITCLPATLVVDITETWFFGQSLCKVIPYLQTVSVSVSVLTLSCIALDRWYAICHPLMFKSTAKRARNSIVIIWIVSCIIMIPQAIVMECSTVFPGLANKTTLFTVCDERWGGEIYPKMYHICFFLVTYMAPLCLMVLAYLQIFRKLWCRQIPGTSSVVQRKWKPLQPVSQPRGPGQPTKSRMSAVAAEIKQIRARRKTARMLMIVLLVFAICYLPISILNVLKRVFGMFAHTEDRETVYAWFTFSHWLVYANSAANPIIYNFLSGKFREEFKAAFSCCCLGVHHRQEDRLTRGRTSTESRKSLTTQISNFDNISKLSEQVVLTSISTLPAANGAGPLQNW

How the values were obtained:
human orexin 1 receptor = human orexin 1 receptor (Homo sapiens, UniProt O43613); experiment: Human orexin 1 receptor radioligand binding; conditions: CHO cells stably expressing human orexin 1 receptor; apparent Ki; read-out: hOX1 Ki
Protocol: The in vitro affinity of the compounds of the invention for the rat/human orexin 1 and human orexin 2 receptors was determined by competitive radioligand binding using [^3H](1-(5-(2-fluoro-phenyl)-2-methyl-thiazol-4-yl)-1-((S)-2-(5-phenyl-(1,3,4)oxadiazol-2-ylmethyl)-pyrrolidin-1-yl)-methanone)(Langmead et al., 2004) and [^3H]EMPA (n-ethyl-2[96-methoxy-pyridin-3-yl)-(toluene-2-sulfonyl)-amino]-N-pyridin-3-ylmethyl acetamide), respectively (Langmead et al., 2004, British Journal of Pharmacology 141:340-346; Malherbe et al., 2004, British Journal of Pharmacology 156:1326-41).
Human Embryonic Kidney 293 cells (HEK293) stably expressing rat orexin 1 receptor (Genebank accession number NM_001525) or Chinese ovary cells (CHO) stably expressing human orexin 1 receptor (Genebank accession number NM_001526) were grown to confluency in DMEM (Hyclone, cat #SH30022), 10% FBS, 1× Pen/Strep, 1× sodium pyruvate, 10 mM HEPES, 600 µg/mL G418 and DMEM/F12 (Gibco, Cat #11039), 10% FBS, 1× Pen/Strep, 600 µg/mL G418 media, respectively on 150 cm^2 tissue culture plates, washed with 5 mM EDTA in PBS (HyClone Dulbecco's Phoshpate Buffered Saline 1× with Calcium and Magnesium, Cat #SH30264.01, hereafter referred to simply as PBS) and scraped into 50 ml tubes. After centrifugation (2K×G, 5 min at 4° C.), the supernatant was aspirated and the pellets frozen and stored at −80° C. Cells were resuspended in PBS in the presence of 1 tablet of protease inhibitor cocktail (Roche, Cat. #11836145001) per 50 mL. Each cell pellet from a 15 cm plate was resuspended in 10 mL, stored on ice, and homogenized for 45 sec prior to addition to the reactions. Competition binding experiments in 96 well polypropylene plates were performed using [^3H]-(1-(5-(2-fluoro-phenyl)-2-methyl-thiazol-4-yl)-1-((S)-2-(5-phenyl-(1,3,4)oxadiazol-2-ylmethyl)-pyrrolidin-1-yl)-methanone) (Moraveck Corporation, specific activity=35.3 Ci/mmol), diluted to a 10 nM concentration in PBS (4 nM final). Compounds were solubilized in 100% DMSO (Acros Organics, Cat. #61042-1000) and tested over a range of 7 concentrations (from 0.1 nM to 10 μM). The final concentration of DMSO in the reactions is equal to or less than 0.1%. Total and nonspecific binding was determined in the absence and presence of 10 μM almorexant. The total volume of each reaction is 200 μL (20 μL of diluted compounds, 80 μL of [3H]-(1-(5-(2-fluoro-phenyl)-2-methyl-thiazol-4-yl)-1-((S)-2-(5-phenyl-(1,3,4)oxadiazol-2-ylmethyl)-pyrrolidin-1-yl)-methanone) diluted in PBS and 100 μL of the cell suspension). Reactions were run for 60 min at room temperature and terminated by filtration through GF/C filter plates (PerkinElmer, Cat. #6005174) presoaked in 0.3% polyethylenimine using the cell harvester (PerkinElmer Filtermate). The plates were washed 3 times by aspirating 30 ml PBS through the plates. Plates were dried in 55° C. oven for 60 min, scintillation fluid was added, and the radioactivity was counted on a Topcount (Packard).

human orexin 2 receptor = human orexin 2 receptor (Homo sapiens (Human), UniProt O43614); experiment: Human orexin 2 receptor radioligand binding ([3H]-EMPA); conditions: HEK293 stably expressing human orexin 2 receptor, apparent Ki, read-out: hOX2 Ki
Protocol: After centrifugation (2K×G, 5 min at 4° C.), the supernatant was aspirated and the pellets frozen and stored at −80° C. […] Each cell pellet from a 15 cm plate was resuspended in 10 mL, stored on ice, and homogenized for 45 sec just prior to addition to the reactions. Competition binding experiments in 96 well polypropylene plates were performed using [^3H]-EMPA (Moraveck Corporation, specific activity=29.6 Ci/mmol), diluted to a 5 nM concentration in PBS (2 nM final concentration). […] The final concentration of DMSO in the reactions is equal to or less than 0.1%. Total and nonspecific binding was determined in the absence and presence of […]. The total volume of each reaction is 200 μL (20 μL of diluted compounds, 80 μL of [^3H]-EMPA diluted in PBS and 100 μL of the cell suspension).
The plates were washed 3 times by aspirating 30 ml PBS through the plates. Plates were dried in 55° C. oven for 60 min, scintillation fluid was added, and the radioactivity was counted on a Topcount (Packard).

rat orexin 1 receptor = rat orexin 1 receptor (Rattus norvegicus, UniProt P56718); experiment: Rat orexin 1 receptor radioligand binding; conditions: HEK293 cells stably expressing rat orexin 1 receptor; apparent Ki; read-out: rOX1 Ki
Protocol: After centrifugation (2K×G, 5 min at 4° C.), the supernatant was aspirated and the pellets frozen and stored at −80° C. […] Each cell pellet from a 15 cm plate was resuspended in 10 mL, stored on ice, and homogenized for 45 sec prior to addition to the reactions. Competition binding experiments in 96 well polypropylene plates were performed using [^3H]-(1-(5-(2-fluoro-phenyl)-2-methyl-thiazol-4-yl)-1-((S)-2-(5-phenyl-(1,3,4)oxadiazol-2-ylmethyl)-pyrrolidin-1-yl)-methanone) (Moraveck Corporation, specific activity=35.3 Ci/mmol), diluted to a 10 nM concentration in PBS (4 nM final). […] The final concentration of DMSO in the reactions is equal to or less than 0.1%. Total and nonspecific binding was determined in the absence and presence of 10 μM almorexant. The total volume of each reaction is 200 μL (20 μL of diluted compounds, 80 μL of [3H]-(1-(5-(2-fluoro-phenyl)-2-methyl-thiazol-4-yl)-1-((S)-2-(5-phenyl-(1,3,4)oxadiazol-2-ylmethyl)-pyrrolidin-1-yl)-methanone) diluted in PBS and 100 μL of the cell suspension). […] The plates were washed 3 times by aspirating 30 ml PBS through the plates. Plates were dried in 55° C. oven for 60 min, scintillation fluid was added, and the radioactivity was counted on a Topcount (Packard).

SMILES | Ki (human orexin 1 receptor) | Ki (human orexin 2 receptor) | Ki (rat orexin 1 receptor)
C[C@H]1[C@H](Nc2ccc(C(F)(F)F)cn2)CCCN1C(=O)c1ccccc1-n1nccn1 (racemic) [Example 12, (±)-trans-(2-(2H-1,2,3-triazol-2-yl)phenyl)(2-methyl-3-((5-(trifluoromethyl)pyridin-2-yl)amino)piperidin-1-yl)methanone] | 11 nM | 332 nM | 14 nM
C[C@@H]1[C@H](Nc2ccc(C(F)(F)F)cn2)CCCN1C(=O)c1ccccc1-n1nccn1 (racemic) [Example 56, (±)-cis-(2-(2H-1,2,3-triazol-2-yl)phenyl)(2-methyl-3-((5-(trifluoromethyl)pyridin-2-yl)amino)piperidin-1-yl)methanone] | 112 nM | 3600 nM | 128 nM
C[C@H]1[C@H](Nc2ncc(C(F)(F)F)cn2)CCCN1C(=O)c1ccccc1-n1nccn1 (racemic) [Example 35, (±)-trans-(2-(2H-1,2,3-triazol-2-yl)phenyl)(2-methyl-3-((5-(trifluoromethyl)pyrimidin-2-yl)amino)piperidin-1-yl)methanone] |  | 738 nM | 20 nM
C[C@H]1[C@H](Nc2nc3ccccc3o2)CCCN1C(=O)c1ccccc1-n1nccn1 (racemic) [Example 41, (±)-trans-(2-(2H-1,2,3-triazol-2-yl)phenyl)(3-(benzo[d]oxazol-2-ylamino)-2-methylpiperidin-1-ylmethanone] | 9 nM | 284 nM | 9 nM
CCOc1ccccc1C(=O)N1CCC[C@@H](Nc2cnc3ccccc3n2)[C@H]1C (racemic) [Example 65, (±)-cis-(2-ethoxyphenyl)(2-methyl-3-(quinoxalin-2-ylamino)piperidin-1-yl)methanone] |  | 295 nM | 314 nM
CCOc1ccccc1C(=O)N1CCC[C@@H](Nc2cnc3ccccc3n2)[C@@H]1C (racemic) [Example 49, (±)-trans-(2-ethoxyphenyl)(2-methyl-3-(quinoxalin-2-ylamino)piperidin-1-yl)methanone] | 70 nM | 89 nM | 95 nM
